From ChEMBL document CHEMBL4622874, “Discovery of ORN0829, a potent dual orexin 1/2 receptor antagonist for the treatment of insomnia” (Bioorg Med Chem, 2020)

Chains of the proteins cited; added tags and fusions are not shown.
UniProt O43614, whole entry: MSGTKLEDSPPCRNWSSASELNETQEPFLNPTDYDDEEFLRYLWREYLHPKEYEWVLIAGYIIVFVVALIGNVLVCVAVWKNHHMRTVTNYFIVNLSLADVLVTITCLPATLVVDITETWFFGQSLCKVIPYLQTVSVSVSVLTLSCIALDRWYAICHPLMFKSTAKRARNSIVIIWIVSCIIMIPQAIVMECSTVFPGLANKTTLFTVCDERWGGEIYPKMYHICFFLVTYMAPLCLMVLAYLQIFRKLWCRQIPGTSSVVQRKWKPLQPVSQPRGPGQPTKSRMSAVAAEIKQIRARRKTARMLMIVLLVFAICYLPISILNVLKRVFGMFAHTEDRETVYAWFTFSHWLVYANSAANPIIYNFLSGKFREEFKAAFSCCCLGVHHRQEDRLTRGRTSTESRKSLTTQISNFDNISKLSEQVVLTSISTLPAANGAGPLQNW

Molecular target: Orexin receptor type 2 (Homo sapiens, UniProt O43614)
Experiment: Antagonist activity at human recombinant OX2R expressed in CHOK1 cells assessed as inhibition of orexin A-induced intracellular Ca2+ release preincubated for 30 mins followed by orexin-A stimulation by Fluo-4AM dye based fluorescence analysis
Type: functional, cell-based, CHO-K1

Row | IC50 [nM] | Structure (SMILES)
1 | 2.03 | Cc1ccc(-n2nccn2)c(C(=O)N2CCCO[C@H]2Cc2cnn(-c3ccc(F)cn3)c2)c1
2 | 2320 | Cc1ccc(-n2nccn2)c(C(=O)N2CCO[C@@H]2Cn2ccc(-c3ccc(F)cn3)n2)c1
3 | 2.21 | Cc1ccc(-n2nccn2)c(C(=O)N2CCCO[C@H]2Cn2cc(-c3ccc(F)cn3)cn2)c1
4 | 12.1 | Cc1ccc(-n2nccn2)c(C(=O)N2CCO[C@H]2Cn2ccc(-c3ccc(F)cn3)n2)c1
